Source: ChEMBL document CHEMBL4665801, “Pyrazole-Based Lactate Dehydrogenase Inhibitors with Optimized Cell Activity and Pharmacokinetic Properties” (J Med Chem, 2020)

Experiments:
[1] = biological target: T1, AhR (aryl hydrocarbon receptor) (Homo sapiens, UniProt P35869); assay: Activation of AhR (unknown origin) up to 10 uM relative to control; format: ADME; settings: read-out: FC
T1 sequence (P35869 whole entry): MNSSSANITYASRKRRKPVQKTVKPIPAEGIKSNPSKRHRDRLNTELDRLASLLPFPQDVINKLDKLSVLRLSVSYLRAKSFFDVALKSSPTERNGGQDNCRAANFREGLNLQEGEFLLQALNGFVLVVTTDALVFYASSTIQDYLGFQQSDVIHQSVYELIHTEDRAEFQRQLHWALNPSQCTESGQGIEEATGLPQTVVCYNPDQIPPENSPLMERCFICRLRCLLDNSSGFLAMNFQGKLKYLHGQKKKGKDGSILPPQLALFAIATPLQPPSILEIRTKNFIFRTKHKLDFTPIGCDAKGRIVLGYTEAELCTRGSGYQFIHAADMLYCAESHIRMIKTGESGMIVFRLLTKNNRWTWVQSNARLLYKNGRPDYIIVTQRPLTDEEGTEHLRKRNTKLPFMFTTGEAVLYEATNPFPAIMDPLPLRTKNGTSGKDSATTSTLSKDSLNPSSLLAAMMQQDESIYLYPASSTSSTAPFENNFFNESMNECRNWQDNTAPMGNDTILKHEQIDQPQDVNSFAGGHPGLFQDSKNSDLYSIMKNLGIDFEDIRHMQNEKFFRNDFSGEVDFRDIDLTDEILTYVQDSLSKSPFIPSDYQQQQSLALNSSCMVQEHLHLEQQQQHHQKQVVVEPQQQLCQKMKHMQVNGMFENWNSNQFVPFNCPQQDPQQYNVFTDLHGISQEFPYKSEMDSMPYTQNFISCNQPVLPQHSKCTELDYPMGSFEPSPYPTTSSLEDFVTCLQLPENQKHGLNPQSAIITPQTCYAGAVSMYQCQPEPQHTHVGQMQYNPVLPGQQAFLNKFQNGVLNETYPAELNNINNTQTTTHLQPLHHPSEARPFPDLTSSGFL

[2] = biological target: T2, PXR (nuclear receptor subfamily 1 group I member 2) (Homo sapiens, UniProt O75469); assay: Activation of PXR (unknown origin) up to 10 uM relative to control; format: ADME; settings: read-out: FC
T2 sequence (O75469 whole entry): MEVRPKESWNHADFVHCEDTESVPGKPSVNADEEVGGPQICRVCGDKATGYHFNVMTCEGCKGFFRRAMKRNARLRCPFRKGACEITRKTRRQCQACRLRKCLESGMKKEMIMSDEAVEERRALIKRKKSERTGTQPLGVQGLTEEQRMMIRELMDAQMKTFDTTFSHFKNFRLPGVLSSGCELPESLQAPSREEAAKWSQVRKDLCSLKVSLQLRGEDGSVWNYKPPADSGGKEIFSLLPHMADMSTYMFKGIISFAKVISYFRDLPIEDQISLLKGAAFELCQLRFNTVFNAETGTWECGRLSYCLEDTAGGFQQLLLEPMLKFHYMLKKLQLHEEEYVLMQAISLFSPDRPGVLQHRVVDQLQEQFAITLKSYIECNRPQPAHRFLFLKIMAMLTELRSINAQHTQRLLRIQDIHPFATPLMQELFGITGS

Cc1ccc(C#Cc2cc(-c3nn(-c4nc(C(=O)O)cs4)c(CC4CC4)c3Cc3ccc(S(N)(=O)=O)c(F)c3)ccc2F)s1
fold induction [1]: < 2
fold induction [2]: < 2
